# Data reported in US20110112110A1, “ANTIPROLIFERATIVE COMPOUNDS AND THERAPEUTIC USES THEREOF” (UNIVERSITA' DEGLISTUDI DI MILANO- BICOCCA, priority 2008, published 2011).
# The chains behind the UniProt entries cited, without tags or fusion partners. Residues count along the entry.
# UniProt Q9UM73, 19-1620 limits assumed: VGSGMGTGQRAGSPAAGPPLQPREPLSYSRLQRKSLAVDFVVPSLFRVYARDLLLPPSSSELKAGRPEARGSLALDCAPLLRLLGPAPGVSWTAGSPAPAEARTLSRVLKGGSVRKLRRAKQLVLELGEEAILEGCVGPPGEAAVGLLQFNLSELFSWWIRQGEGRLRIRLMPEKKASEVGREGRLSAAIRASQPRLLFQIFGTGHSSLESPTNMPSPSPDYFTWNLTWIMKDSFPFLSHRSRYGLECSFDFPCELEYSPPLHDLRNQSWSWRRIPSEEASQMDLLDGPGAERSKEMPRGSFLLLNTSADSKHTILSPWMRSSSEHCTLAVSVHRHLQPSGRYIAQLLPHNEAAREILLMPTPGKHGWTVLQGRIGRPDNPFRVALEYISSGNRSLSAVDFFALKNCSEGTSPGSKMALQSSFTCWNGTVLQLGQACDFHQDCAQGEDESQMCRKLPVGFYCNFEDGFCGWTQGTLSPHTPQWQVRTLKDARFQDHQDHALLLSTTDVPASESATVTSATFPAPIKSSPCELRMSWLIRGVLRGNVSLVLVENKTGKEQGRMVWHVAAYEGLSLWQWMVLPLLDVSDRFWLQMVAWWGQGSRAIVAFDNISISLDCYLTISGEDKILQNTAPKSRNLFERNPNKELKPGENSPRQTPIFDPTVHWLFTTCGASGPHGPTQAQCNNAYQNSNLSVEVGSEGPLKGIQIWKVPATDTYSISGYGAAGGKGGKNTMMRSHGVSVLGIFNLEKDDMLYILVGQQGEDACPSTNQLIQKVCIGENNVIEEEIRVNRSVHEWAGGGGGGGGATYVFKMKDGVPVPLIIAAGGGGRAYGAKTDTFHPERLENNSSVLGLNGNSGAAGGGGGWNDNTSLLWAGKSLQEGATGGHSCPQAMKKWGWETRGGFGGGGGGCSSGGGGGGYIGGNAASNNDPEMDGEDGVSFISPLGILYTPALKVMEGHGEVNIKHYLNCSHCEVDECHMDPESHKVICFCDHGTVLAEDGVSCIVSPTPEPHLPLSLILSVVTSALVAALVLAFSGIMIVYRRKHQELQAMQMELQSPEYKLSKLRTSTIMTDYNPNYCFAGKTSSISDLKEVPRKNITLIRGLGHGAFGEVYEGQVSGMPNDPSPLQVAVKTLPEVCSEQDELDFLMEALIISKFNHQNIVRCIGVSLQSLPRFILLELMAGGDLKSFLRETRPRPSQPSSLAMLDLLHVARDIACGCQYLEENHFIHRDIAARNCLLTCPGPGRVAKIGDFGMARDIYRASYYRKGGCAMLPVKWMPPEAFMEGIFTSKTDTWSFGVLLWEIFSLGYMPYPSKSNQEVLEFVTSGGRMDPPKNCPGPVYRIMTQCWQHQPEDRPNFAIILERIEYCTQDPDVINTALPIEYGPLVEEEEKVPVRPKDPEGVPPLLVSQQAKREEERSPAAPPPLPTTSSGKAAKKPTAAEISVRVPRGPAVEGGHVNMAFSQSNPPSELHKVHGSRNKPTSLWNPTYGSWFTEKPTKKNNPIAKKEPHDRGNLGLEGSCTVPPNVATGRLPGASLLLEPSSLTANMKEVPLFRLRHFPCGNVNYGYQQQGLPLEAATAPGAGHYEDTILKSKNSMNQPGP
# Biological target: Recombinant ALK kinase (Homo sapiens, UniProt Q9UM73)
# Assay: ELISA-based in vitro kinase assay (ALK kinase inhibitory activity)
# Settings: read-out: IC50 values on ALK; purified rALK, 0.3 mM ATP, ALK peptide substrate, 30° C. 15 minutes
smiles,measurement,value
O=C(O)c1ccc(-c2ccc(-c3ccco3)c(Cl)c2)cc1,IC50,9.6 µM
